Results taken from patent US20170029366A1, “INHIBITORS OF HISTONE LYSINE SPECIFIC DEMETHYLASE (LSD1) AND HISTONE DEACETYLASES (HDACS)” (THE JOHNS HOPKINS UNIVERSITY, priority 2014, published 2017).

The chains behind the UniProt entries cited, without tags or fusion partners.
UniProt P27338, whole entry: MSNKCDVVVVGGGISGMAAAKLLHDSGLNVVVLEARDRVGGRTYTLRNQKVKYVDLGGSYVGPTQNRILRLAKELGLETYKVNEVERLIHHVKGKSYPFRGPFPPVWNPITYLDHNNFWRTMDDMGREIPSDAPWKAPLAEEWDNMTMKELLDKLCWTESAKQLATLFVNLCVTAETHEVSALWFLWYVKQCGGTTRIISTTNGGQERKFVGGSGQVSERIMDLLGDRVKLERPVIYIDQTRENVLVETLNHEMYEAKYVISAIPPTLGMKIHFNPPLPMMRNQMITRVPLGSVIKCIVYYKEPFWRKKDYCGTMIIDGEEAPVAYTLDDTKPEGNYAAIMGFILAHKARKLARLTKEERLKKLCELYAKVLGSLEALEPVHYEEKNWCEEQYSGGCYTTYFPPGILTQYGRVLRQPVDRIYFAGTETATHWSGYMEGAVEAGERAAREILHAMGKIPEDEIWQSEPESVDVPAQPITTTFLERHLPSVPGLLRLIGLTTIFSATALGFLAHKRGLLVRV
UniProt P21397, whole entry: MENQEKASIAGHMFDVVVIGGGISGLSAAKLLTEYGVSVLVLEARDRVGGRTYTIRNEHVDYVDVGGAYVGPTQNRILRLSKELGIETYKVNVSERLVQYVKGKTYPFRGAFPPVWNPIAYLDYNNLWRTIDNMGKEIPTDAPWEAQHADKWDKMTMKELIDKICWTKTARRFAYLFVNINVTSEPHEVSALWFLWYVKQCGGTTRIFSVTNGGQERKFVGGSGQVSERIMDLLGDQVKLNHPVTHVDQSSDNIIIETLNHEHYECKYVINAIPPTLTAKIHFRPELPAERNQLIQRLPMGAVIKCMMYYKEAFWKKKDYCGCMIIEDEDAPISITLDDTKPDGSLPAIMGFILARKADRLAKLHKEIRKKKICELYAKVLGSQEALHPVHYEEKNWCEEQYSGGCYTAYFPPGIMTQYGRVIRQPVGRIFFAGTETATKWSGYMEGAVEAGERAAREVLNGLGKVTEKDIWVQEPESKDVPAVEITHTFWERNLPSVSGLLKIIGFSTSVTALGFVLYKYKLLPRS

Columns and labels:
H3K4Me2 in LNCaP cells = test: Western blot of histone H3 marks in LNCaP cells; type: cell-based; settings: 48 h
GST-LSD1 [1] = target: T1, GST-LSD1 (Homo sapiens, UniProt O60341)
GST-LSD1 [2] = target: T1, GST-LSD1; test: MassSQUIRM LSD1 inhibition assay; type: biochemical; parameters: made in house; host or cells: E. coli; settings: 50 μM inhibitor, 215 nM GST-LSD1, 30 min, 25° C.
MAO-B = target: T2, MAO-B (Homo sapiens, UniProt P27338); test: MAO-B activity and inhibition assay (peroxidase-coupled, tyramine); type: biochemical
T2 construct: purchased Sigma M 7441
Protocol: (§1) MAO-A was purchased from Sigma (product number: M 7316). MAO-B was purchased from Sigma (product number: M 7441). MAO-A/B activity was measured spectrophotometrically using a peroxidase-coupled assay as previously described. Forneris, F., et al. (2005). 100 μL reactions were initiated by the addition of 2 μL of MAO-A/B (to obtain 100-200 nM final concentration for MAO-A and 0.837 M final concentration for MAO-B) to reaction mixtures consisting of 50 mM HEPES buffer (pH 7.5), 0.1 mM 4-aminoantipyrine, 1 mM 3,5-dichloro-2-hydroxybenzenesulfonic acid, 0.04 mg/mL horseradish peroxidase (Worthington Biochemical Corporation), and appropriate concentration of buffered substrate (tyramine). Absorbance changes were measured at 515 nm using a Beckman Instruments DU series 600 spectrophotometer equipped with a thermostatted cell holder (T=25° C.), and product formation was calculated using the extinction coefficient of 26,000 M^−1.
(§2) […]. Reactions were run at similar conditions as previously stated with 125 µM tyramine substrate for MAO-A and with 125-1,000 M tyramine substrate for MAO-B. Progress curves were then fit accordingly to eqs 1-3 as previously stated. Each experiment was repeated at least two independent times and repeat measured values were typically within 20% of each other.

GST-LSD1 [3] = target: T1, GST-LSD1; settings: as reported previously (Blair 2011); cited from earlier work
MAO-A = target: T3, MAO-A (Homo sapiens, UniProt P21397); test: MAO-A activity and inhibition assay (peroxidase-coupled, tyramine); type: biochemical
T3 construct: purchased Sigma M 7316
Protocol: as §1, §2

LNCaP cells = test: [3H] thymidine incorporation assay in LNCaP cells; type: cell-based; settings: 48 h, 80 μM

Compound: Cl.Cl.NNCCc1ccc(NC(=O)CCCc2ccccc2)cc1 [Compound 12d, N-[4-(2-Hydrazinylethyl)phenyl]-4-phenylbutanamide dihydrochloride]
- H3K4Me2 band density (H3K4Me2 in LNCaP cells; 3 μM and 10 μM, 3 biological replicates): Statistically significant increases
- changes in H3K4Me1, H3K4Me3, unmethylated H3K4, H3K9Me2, H3K9Ac, H3K36Me3 (H3K4Me2 in LNCaP cells; 0.4-10 μM): no significant reproducible changes
- effect on LSD1 protein levels (H3K4Me2 in LNCaP cells; 0.4-10 μM): no discernible effect

Compound: NNCCc1ccc(NC(=O)CCCc2c[nH]c3ccccc23)cc1.O=S(=O)(O)O [Compound 15b, N-[4-(2-Hydrazinylethyl)phenyl]-4-(1H-indol-3-yl)butanamide sulfate]
- k(inact) (GST-LSD1 [1]; GST-LSD1, peroxidase-coupled assay): 0.17 ± 0.019 min⁻¹

Compound: NNCCc1ccccc1 [phenelzine]
- LSD1 inhibition in MassSQUIRM assay (in words) (GST-LSD1 [2]): negligible impact on LSD1 inhibition
- k(inact) (MAO-B; MAO-B): 0.20 ± 0.040 min⁻¹
- k(inact)/Ki(inact) (MAO-B; MAO-B): 850 ± 417 M⁻¹ s⁻¹
- selective for inhibiting LSD1 versus MAO B (MAO-B; based on k(inact)/Ki(inact)): equipotent in blocking MAO B compared with LSD1
- concentration needed to extinguish LSD1 activity under MassSQUIRM conditions (GST-LSD1 [3]): greater than 10 mM
- k(inact)/Ki(inact) (GST-LSD1 [1]; GST-LSD1 inactivation efficiency): 1050 ± 300 M⁻¹ s⁻¹
- weaker LSD1 inhibitor than bizine (GST-LSD1 [1]; phenelzine relative to bizine): approximately 100 fold
- k(inact) (MAO-A; MAO-A): 0.24 ± 0.057 min⁻¹
- k(inact)/Ki(inact) (MAO-A; MAO-A): 4830 ± 3000 M⁻¹ s⁻¹
- selective for inhibiting LSD1 versus MAO A (MAO-A; based on k(inact)/Ki(inact)): preferentially inhibits MAO A
- reduction in 3H-thymidine incorporation (LNCaP cells): < 50%
